The source of these data is patent publication US8969343B2, “Histone demethylase inhibitors” (priority 2012, dated 2015).

Molecules are shown by their SMILES.

The experiment addresses T1, JMJD2C (Homo sapiens, UniProt Q9H3R0).
T1 sequence (Q9H3R0 2-372): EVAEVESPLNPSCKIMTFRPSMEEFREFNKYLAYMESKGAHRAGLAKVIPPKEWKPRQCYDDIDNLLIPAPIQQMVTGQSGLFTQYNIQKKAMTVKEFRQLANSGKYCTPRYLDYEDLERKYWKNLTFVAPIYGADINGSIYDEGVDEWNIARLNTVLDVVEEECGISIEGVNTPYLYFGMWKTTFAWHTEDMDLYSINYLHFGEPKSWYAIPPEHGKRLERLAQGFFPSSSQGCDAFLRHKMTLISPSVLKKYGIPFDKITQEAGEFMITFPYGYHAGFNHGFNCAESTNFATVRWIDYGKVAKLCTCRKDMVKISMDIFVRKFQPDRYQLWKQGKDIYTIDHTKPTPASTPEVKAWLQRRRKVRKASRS
The experiment in a line: JMJD2C in vitro enzyme inhibition assay (TR-FRET). The experiment is classed as biochemical. (In general: TR-FRET usually uses a lanthanide donor and a delayed reading to cut background.)

In turn, `O=C(O)c1ccncc1Nc1nn(C2CCOC2)c2c1CCCC2` (stereo not shown) [Example 65, 3-{[1-(tetrahydrofuran-3-yl)-4,5,6,7-tetrahydro-1H-indazol-3-yl]amino}pyridine-4-carboxylic acid] yielded an IC50 of 100 to 1000 nM.

What is called IC50 is the point on the concentration scale where inhibition reaches its midpoint.
